Nrf2 activator: activates Nrf2 signaling; 0.31% of 410,000 active; AREc32 ARE-luciferase reporter (MCF7-derived line), luminescence, 24 h; AID 624171; Potency, µM (series often up to 46.1 µM), for inactives: at the highest dose activation, most hits filed as activators; further: potency means the concentration at half of the fitted maximal effect; % of control where 0% means no effect; nearly all actives have a fitted effect of over 65% in size
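AREc32_Fluc, 1000 cells/well, OPTI-MEM + 5% FBS, o/n 37 deg C 5% CO2; 23 nL cpd by pin tool, 24 hr; Steady-Glo 30 min RT, luminescence.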
ClpP mod: qHTS Assay for Activators of ClpP. ATP-dependent Clp protease proteolytic subunit (Bacillus subtilis (strain 168)), P80244. purified B. subtilis ClpP, FRET peptide cleavage, 20 min. Potency, µM (series often up to 57.5 µM), for inactives: at the highest dose activity change, negative = active. 1.9% of 340,000 active. AID 651965, 2013; active means well fitted falling curve with a large enough effect; further: potency means the concentration at half of the fitted maximal effect; the source files actives as falling curves though it sought activators and does not explain the sign; nearly all actives have a fitted effect of over 65% in size
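Purified B. subtilis ClpP, 10 microg/mL final in Tris/HCl pH8 with KCl, BSA, glycerol and Tween-20, cleaved an Abz/nitrotyrosine-quenched decapeptide. Fluorescence (ex 320, em 430) was read at 0 and 20 min at room temperature. Delta was normalized to 5.8 microM ADEP and DMSO/no-enzyme controls.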
A549 viability: counter-screen for Nrf2 inhibitors: cytotoxicity in A549 cells; A549 ARE-Fluc cells, CellTiter-Fluor viability, 18-24 h; Potency, µM (doses to about 46 µM), for inactives: at the highest dose activity change, negative = cytotoxicity, usual class: inhibitors; 0.16% of 390,000 active; AID 504648; further: potency means the concentration at half of the fitted maximal effect; on the % scale 0 is the no-effect control and ±100 the full control effect
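A549 ARE_Fluc cells in 5% FBS OPTI-MEM were exposed to compounds in concentration-response for 18-24 h at 37 deg C. Viability was read by CellTiter-Fluor fluorescence (Ex 405/Em 525) after 30 min, before the luciferase read.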
Nrf2 block: Nrf2 pathway inhibition; 2.1% of 360,000 active; A549 ARE-Fluc reporter, luciferase luminescence, 18-24 h; Potency, µM (highest dose often 46 µM), for the others: at the highest dose activity change, negative = inhibition, most hits filed as inhibitors; further: potency means the concentration at half of the fitted maximal effect; on the % scale 0 is the no-effect control and ±100 the full control effect; nearly all actives have a fitted effect of over 60% in size
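Cells were seeded and rested 2 h, then exposed to compounds for 18-24 h. CellTiter-Fluor was read first as a viability measure. BugLite was added 15 min before the final luminescent read of ARE-luciferase activity in A549 cells.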
TCR activator: T cell receptor activation; Potency, µM (doses to about 9.22 µM), for inactives: top-dose activation of IL-2 secretion, actives largely listed as activators; 330,000 tested, under 10 active; primary human leukocytes, anti-CD3, IL-2 HTRF, 48 h; AID 504894; further: % of control where 0% means no effect
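IL-2 produced over 48 hr by a-CD3 bead-stimulated primary human leukocytes exposed to compounds was detected with a homogeneous time-resolved FRET immunoassay, 665nm acceptor signal after 320nm excitation.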
miR-21 reporter: miR-21 reporter, rising signal | 340,000 tested, under 10 active | AID 2288 | HeLa miR-21 FLuc reporter, luciferase, 48 h | Potency, µM (titrated, usually from 38.3 µM), for inactives: at the highest dose reporter change, positive = more light; active = well fitted rising curve with a large enough effect; inconclusive = small, poorly fitted or top-dose-only effect; inactive = no such curve, though single readings can be large or run the other way;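 further: % of control where 0% means no effect; miR-21 action dims this reporter so a rising signal means less miR-21 action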
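HeLa miR-21-FLuc reporter line, endogenous miR-21; 2000 cells/well in DMEM/10% FBS; compound titration up to ~40uM final, 48 h, 37 degree Celsius; luciferase detection reagent, 15 min lysis, CCD luminescence.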
An asterisk follows results filed as active; [ ] = another dose, or the depositor's remark. An excerpt weighted towards active compounds, which were near 3.7% of everything screened. Unless noted, the call rests on the fitted dose curve; in most records, active means well fitted curve in the direction sought with a large enough effect; inconclusive means small, poorly fitted or top-dose-only effect, or another doubt; inactive means no such curve, though single readings can be large; an effect the other way counts as inactive or inconclusive.

`CCOC(=O)[C@H]1[C@H]2COc3ccc(Cl)cc3[C@@H]2N2C(=O)CNC(=O)[C@@]12C` gave Nrf2 activator -1%, ClpP mod 0%, A549 viability 1%, Nrf2 block -3% and TCR activator -6%.
For COc1ccc(-n2cc(-c3ccccc3)c3c(N4CCCC(C)C4)ncnc32)cc1 (stereo unspecified) the results were Nrf2 activator -1%, ClpP mod -14%, A549 viability -2% and miR-21 reporter 9%.
`COc1ccc(CC(=O)N2CCN(c3ccc(C4=NNC(=O)CC4C)cc3)CC2)cc1` (stereo unspecified) gave Nrf2 activator 3%, ClpP mod 28µM*, A549 viability -11%, Nrf2 block -3%, TCR activator -2% and miR-21 reporter -26%.
`COc1ccc(CC(=O)N2CCN(C(=O)Cc3ccc(OC)cc3)CC2)cc1` gave Nrf2 activator 0%, ClpP mod -5%, A549 viability -5%, Nrf2 block 6%, TCR activator -1% and miR-21 reporter -1%.
For Cc1cc2c(cc1C)NC(CC(=O)Nc1cccc(C)c1C)C(=O)N2 (stereo unspecified) the results were Nrf2 activator 12%, ClpP mod 4%, A549 viability 1%, Nrf2 block 11% and miR-21 reporter -20%.
`CCC1(c2ccc(F)cc2)NC(=O)N(CC(=O)N2CCN(S(=O)(=O)c3ccc(Cl)cc3)CC2)C1=O` (stereo unspecified) gave Nrf2 activator 4%, ClpP mod -13%, A549 viability -6%, Nrf2 block -25% and TCR activator -4%.
`Cc1cc(C)c(S(=O)(=O)N2CCN(C(=O)CN3C(=O)NC4(CCCC4)C3=O)CC2)c(C)c1` gave Nrf2 activator -1%, ClpP mod 35µM*, A549 viability -5%, Nrf2 block -24%, TCR activator -2% and miR-21 reporter -1%.
`CCC1(c2ccc(F)cc2)NC(=O)N(CC(=O)N2CCN(S(=O)(=O)c3ccc(C)cc3C)CC2)C1=O` (stereo unspecified) gave Nrf2 activator 6%, ClpP mod 0%, A549 viability -22%, Nrf2 block 18µM* and TCR activator 0%.
Screening NC(=O)COc1ccc(/C=N\NC(=O)c2ccc(-c3ccccc3)cc2)cc1 returned Nrf2 activator 2%, ClpP mod 10µM*, A549 viability 16%, Nrf2 block 19%, TCR activator 3% and miR-21 reporter -4%.
For COC(=O)COc1ccc(/C=N/NC(=O)c2ccc(N(Cc3ccccc3)S(C)(=O)=O)cc2)cc1 the results were Nrf2 activator -1%, ClpP mod 32µM*, A549 viability -2%, Nrf2 block -10%, TCR activator 0%[46.1 µM] and miR-21 reporter -6%.
Screening O=C1NC[C@H](Cc2ccccc2)N(CC2CCN(CC3CCCC3)CC2)C1=O returned Nrf2 activator 0%, ClpP mod -6%, A549 viability 12%, Nrf2 block -3% and TCR activator 1%.
`Cc1ccc(CN2CCN(Cc3c(C)nn(-c4ccc(F)cc4)c3C)CC2CCO)o1` (stereo unspecified) gave Nrf2 activator 0%, ClpP mod 1%, A549 viability 0%, Nrf2 block -1%, TCR activator 10% and miR-21 reporter -2%.
For Cc1cc(C)c(CN2CCN(Cc3ccc(C)o3)C(CCO)C2)c(-n2cccn2)c1 (stereo unspecified) the results were Nrf2 activator -1%, ClpP mod 25µM*, A549 viability -16%, Nrf2 block -20%, TCR activator -11% and miR-21 reporter 20%.

Two entries picked at random from the list so far:
Screening NC(=O)COc1ccc(/C=N\NC(=O)c2ccc(-c3ccccc3)cc2)cc1 returned Nrf2 activator 2%, ClpP mod 10µM*, A549 viability 16%, Nrf2 block 19%, TCR activator 3% and miR-21 reporter -4%.
`COc1ccc(CC(=O)N2CCN(C(=O)Cc3ccc(OC)cc3)CC2)cc1` gave Nrf2 activator 0%, ClpP mod -5%, A549 viability -5%, Nrf2 block 6%, TCR activator -1% and miR-21 reporter -1%.

Screens from PubChem.
